Experimental data from publication PMC11879040 (2024).

Sequences of proteins named here, by UniProt entry; tags and fusion partners are left off. A change or cut given only in a name is not applied to a line headed by its entry.
UniProt P11229: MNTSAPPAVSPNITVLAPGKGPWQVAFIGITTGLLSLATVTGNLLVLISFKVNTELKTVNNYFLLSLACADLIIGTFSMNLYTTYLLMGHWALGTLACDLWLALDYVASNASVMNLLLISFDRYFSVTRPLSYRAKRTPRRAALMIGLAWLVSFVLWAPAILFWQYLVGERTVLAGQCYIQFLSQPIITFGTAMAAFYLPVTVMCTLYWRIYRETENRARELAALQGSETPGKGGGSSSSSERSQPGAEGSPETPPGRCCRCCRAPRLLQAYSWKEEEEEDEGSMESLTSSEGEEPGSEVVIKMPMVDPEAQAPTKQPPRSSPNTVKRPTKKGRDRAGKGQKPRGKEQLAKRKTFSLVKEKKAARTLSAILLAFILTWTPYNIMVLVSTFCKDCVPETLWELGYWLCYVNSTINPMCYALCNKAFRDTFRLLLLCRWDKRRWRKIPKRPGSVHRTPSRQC
UniProt P35367, whole entry: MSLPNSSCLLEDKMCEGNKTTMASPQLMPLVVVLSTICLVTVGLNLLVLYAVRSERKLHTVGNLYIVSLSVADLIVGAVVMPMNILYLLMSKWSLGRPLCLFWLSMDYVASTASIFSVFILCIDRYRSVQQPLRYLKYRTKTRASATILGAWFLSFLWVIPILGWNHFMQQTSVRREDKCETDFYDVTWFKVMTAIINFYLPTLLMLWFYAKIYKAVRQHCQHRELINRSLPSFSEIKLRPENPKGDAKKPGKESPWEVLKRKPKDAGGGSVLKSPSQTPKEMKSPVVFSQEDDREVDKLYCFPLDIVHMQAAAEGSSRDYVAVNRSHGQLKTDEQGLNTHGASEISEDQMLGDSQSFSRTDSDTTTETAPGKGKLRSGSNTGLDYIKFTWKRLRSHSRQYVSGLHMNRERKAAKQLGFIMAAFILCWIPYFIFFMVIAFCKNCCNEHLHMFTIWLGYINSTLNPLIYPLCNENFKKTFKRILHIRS
UniProt P28223, whole entry: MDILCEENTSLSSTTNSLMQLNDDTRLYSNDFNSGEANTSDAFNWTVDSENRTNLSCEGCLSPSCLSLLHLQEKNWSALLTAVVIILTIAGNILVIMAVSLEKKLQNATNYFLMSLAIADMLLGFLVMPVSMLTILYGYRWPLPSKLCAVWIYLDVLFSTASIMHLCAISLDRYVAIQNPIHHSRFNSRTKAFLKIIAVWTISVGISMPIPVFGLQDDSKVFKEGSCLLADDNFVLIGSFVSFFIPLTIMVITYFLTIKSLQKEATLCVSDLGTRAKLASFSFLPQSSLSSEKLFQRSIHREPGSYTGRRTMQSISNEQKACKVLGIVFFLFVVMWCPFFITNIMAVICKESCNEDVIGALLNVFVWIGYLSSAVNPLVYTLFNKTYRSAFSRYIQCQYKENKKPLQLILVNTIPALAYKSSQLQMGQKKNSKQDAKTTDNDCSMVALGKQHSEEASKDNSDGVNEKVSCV
UniProt Q12809: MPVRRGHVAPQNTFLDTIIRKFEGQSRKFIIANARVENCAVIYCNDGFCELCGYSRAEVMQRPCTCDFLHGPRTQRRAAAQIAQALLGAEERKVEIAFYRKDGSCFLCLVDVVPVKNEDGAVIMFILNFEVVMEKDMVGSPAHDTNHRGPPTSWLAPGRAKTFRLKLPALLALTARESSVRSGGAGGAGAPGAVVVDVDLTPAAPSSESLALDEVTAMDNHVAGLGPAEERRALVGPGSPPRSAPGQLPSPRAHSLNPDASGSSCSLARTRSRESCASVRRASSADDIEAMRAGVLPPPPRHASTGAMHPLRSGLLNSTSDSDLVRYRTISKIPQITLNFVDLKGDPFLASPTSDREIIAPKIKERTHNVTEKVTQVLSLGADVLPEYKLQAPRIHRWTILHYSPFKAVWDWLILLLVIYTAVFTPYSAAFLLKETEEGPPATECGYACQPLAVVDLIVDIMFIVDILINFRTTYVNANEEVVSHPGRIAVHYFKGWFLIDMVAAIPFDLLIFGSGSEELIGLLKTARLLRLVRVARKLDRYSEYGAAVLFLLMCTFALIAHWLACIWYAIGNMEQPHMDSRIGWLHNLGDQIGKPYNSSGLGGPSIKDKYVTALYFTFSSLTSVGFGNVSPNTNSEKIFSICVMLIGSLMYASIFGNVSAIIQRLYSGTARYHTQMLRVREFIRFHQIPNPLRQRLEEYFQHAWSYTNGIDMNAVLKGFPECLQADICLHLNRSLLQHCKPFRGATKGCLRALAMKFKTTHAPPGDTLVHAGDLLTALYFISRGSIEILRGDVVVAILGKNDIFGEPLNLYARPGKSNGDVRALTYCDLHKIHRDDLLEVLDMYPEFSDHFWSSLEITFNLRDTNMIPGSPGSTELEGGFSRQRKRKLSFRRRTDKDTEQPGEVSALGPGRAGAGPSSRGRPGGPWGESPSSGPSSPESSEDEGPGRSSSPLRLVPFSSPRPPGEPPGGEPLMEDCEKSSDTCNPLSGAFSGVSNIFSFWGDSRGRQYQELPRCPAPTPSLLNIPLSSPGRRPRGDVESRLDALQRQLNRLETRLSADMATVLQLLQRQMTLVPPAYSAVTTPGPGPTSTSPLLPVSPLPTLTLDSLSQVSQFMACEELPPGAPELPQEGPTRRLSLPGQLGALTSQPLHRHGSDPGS
UniProt P22002, whole entry: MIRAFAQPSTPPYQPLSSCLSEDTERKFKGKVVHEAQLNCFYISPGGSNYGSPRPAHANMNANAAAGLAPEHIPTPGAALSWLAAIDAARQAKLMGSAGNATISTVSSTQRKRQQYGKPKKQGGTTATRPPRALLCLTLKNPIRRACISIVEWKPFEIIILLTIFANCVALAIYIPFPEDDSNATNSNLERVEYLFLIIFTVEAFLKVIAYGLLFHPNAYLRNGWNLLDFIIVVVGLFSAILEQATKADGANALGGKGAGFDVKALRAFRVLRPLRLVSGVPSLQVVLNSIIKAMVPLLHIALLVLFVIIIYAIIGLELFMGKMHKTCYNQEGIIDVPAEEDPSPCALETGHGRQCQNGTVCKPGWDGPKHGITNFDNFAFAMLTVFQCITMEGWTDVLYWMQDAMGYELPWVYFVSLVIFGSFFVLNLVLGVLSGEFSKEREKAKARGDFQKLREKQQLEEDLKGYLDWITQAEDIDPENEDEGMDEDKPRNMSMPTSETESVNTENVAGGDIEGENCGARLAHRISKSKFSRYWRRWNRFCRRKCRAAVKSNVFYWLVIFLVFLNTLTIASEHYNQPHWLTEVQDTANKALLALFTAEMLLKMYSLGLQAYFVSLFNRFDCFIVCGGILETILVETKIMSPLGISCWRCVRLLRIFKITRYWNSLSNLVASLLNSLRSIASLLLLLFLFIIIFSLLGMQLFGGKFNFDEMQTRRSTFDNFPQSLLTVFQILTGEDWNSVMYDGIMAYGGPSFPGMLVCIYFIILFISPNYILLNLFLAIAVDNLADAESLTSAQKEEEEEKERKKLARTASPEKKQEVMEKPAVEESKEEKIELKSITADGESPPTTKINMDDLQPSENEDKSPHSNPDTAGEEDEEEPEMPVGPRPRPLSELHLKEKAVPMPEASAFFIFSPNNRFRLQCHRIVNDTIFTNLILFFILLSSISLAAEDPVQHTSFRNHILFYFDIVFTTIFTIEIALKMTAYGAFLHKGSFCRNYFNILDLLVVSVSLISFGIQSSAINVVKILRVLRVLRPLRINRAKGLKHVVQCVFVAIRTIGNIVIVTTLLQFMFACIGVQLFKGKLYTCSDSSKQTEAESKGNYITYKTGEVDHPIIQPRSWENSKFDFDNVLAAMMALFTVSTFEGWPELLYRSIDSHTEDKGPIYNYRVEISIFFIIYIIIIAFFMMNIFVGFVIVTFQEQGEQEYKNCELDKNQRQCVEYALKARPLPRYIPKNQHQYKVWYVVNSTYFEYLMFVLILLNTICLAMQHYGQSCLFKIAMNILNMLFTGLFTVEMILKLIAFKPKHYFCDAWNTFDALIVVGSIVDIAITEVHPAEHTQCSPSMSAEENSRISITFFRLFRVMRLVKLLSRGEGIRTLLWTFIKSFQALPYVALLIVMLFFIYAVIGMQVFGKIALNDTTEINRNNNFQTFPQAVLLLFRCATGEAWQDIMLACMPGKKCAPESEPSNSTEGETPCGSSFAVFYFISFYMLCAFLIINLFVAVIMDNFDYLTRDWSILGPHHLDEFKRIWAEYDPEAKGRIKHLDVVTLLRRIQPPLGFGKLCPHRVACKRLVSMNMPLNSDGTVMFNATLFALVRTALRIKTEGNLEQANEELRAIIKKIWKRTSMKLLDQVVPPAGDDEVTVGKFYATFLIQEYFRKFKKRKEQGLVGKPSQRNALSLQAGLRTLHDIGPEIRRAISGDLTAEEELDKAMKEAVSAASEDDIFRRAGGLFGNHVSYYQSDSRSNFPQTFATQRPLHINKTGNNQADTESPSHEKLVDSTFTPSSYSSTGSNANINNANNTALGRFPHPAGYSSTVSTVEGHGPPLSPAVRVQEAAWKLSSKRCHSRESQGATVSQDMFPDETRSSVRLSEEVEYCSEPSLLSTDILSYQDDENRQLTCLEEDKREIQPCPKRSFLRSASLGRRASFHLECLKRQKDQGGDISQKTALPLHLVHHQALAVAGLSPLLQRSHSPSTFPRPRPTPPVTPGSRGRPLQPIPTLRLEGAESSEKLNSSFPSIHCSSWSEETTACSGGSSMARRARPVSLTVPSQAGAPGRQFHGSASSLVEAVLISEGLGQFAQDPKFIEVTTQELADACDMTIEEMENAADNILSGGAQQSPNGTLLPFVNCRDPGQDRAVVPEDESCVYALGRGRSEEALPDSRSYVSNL

Legend:
[1] = target: Muscarinic acetylcholine receptor M1, CHRM1 (h) (Homo sapiens, UniProt P11229)
[2] = target: Histamine H1 receptor, HRH1 (h) (Homo sapiens, UniProt P35367); test: IPP HRH1 binding (antagonist radioligand)
[3] = target: 5-hydroxytryptamine receptor 2A, HTR2A (h) (Homo sapiens, UniProt P28223)
[4] = tested on: Sodium channel protein type 5 subunit alpha (site 2), SCN5A (r); details: IPP screening at 10 uM; control veratridine
[5] = target: Potassium voltage-gated channel subfamily H member 2 hERG, KCNH2 (h) (Homo sapiens, UniProt Q12809)
[6] = target: Voltage-dependent L-type Ca2+ channel (dihydropyridine site), CACNA1C (r) (Rattus norvegicus, UniProt P22002)

Compound	IPP screening %, Specific binding [5] [%]	also measured
(4S,4aR,5S,5aR,6S,12aS)-4-(Dimethylamino)-3,5,6,10,12,12a-hexahydroxy-6-methyl-1,11-dioxo-1,4,4a,5,5a,6,11,12a-octahydrotetracene-2-carboxamide--hydrogen chloride (1/1) [Oxytetracycline hydrochloride]	–	Specific binding [1]: 1.7%; Specific binding [2]: 6.0%; Specific binding [3]: -21.8%
CC(=O)N1CCN(c2ccc(OC[C@H]3CO[C@](Cn4ccnc4)(c4ccc(Cl)cc4Cl)O3)cc2)CC1	–	Specific binding [4]: 47.6%
C[C@@H]1C[C@H]2[C@@H]3CCC4=CC(=O)C=C[C@]4(C)[C@@]3(F)[C@@H](O)C[C@]2(C)[C@@]1(O)C(=O)CO [Dexamethasone, 9-Fluoro-11beta,17,21-trihydroxy-16alpha-methylpregna-1,4-diene-3,20-dione]	0.0	–
CCOP(=S)(OCC)Oc1nc(Cl)c(Cl)cc1Cl [Chlorpyrifos, O,O-Diethyl O-(3,5,6-trichloropyridin-2-yl) phosphorothioate]	7.4	–
CC(=O)Nc1ccc(O)cc1 [Paracetamol, N-(4-Hydroxyphenyl)acetamide]	-17.9	–
O=P1(N(CCCl)CCCl)NCCCO1 (centres unmarked) [Cyclophosphamide, 2-[Bis(2-chloroethyl)amino]-1,3,2lambda~5~-oxazaphosphinan-2-one]	-10.7	–
N#CC(CCc1ccc(Cl)cc1)(Cn1cncn1)c1ccccc1 (centres unmarked) [Fenbuconazole, 4-(4-Chlorophenyl)-2-phenyl-2-[(1H-1,2,4-triazol-1-yl)methyl]butanenitrile]	–	IPP Dose Response PoD: CACNA1C [6]: [8.5,12.5]
CCN(CC)CCNC(=O)c1cc(Cl)c(N)cc1OC [Metoclopramide, 4-Amino-5-chloro-N-[2-(diethylamino)ethyl]-2-methoxybenzamide]	46.0	–
CCOC(=O)c1ccc(N)cc1 [Benzocaine, Ethyl 4-aminobenzoate]	13.7	–
